For this series, the system named is O=P(O)(O)O. The experiment in a line: purified protein. The note with it: 2 mM NAD+, 2 mM G3P, 40 mM Tris-HCl pH 8.5, 2 mM EDTA, 25 °C, fit with substrate inhibition.

The values that follow come from publication PMC10318897, “The structure of Leptospira interrogans GAPDH sheds light into an immunoevasion factor that can target the anaphylatoxin C5a of innate immunity” (Frontiers in Immunology, 2023).

Usually Km stands for the substrate concentration at which the rate is half of its maximum. As usually defined, the kcat is the number of substrate molecules converted per active site and unit of time at saturation. Usually kcat/Km stands for the second-order rate constant that governs catalysis at low substrate concentration.

On to “LiGAPDH (Leptospira interrogans serovar Copenhageni str. Fiocruz L1-130)”, for which the Michaelis-Menten constant (Km) came to 1200 ± 100 µM, the kcat stood at 110 ± 7 s⁻¹ and the kcat/Km turned out to be 91000 M⁻¹ s⁻¹.
